The assay has as its target T1, MED25 ACID/PTOV domain (residues 391 to 548) (human, UniProt Q71SY5 391-548).
T1 sequence (looked up): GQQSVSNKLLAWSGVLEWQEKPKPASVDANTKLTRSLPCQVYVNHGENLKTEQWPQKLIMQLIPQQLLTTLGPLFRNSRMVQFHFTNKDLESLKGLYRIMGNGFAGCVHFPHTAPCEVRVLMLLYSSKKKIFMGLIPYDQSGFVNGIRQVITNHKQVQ
The assay is described as follows: fluorescence polarisation. (In general: Polarisation of emitted light reports the rotation of a fluorescent probe.)

For the molecule PGPGFTPHDSAPYGALDMADFEFEQMFTDALGIDEYGG (peptide, UniProt P06492 453-490, looked up, TAMRA on the N-terminal free NH2 group) [TAMRA-labelled VP16 H2 peptide (amino acids 453–490)], the Kd was determined as 2 µM.
The value for APPTDVSLGDELHLDGEDVAMAHADALDDFDLDMLGDGDS (peptide, UniProt P06492 413-452, looked up, TAMRA on the N-terminal free NH2 group) [TAMRA-labelled VP16 H1 peptide (amino acids 413–452)] was 0.15 µM.

Broadly, the Kd is the free concentration of one partner at which half of the binding sites on the other are occupied at equilibrium, for simple one-to-one binding. A higher Kd goes with a looser complex.

The values are drawn from publication PMC4538835 (Nucleic Acids Research, 2015).
